Earlier results on 1 molecule are cited in US20090087916A1, “Assay method for identifying drug candidate” (AnGesMG, Inc., priority 2004, published 2009).

Protein sequences, listed by entry. Tags and fused reporters are not part of them. Residues count along the entry.
UniProt P05067, 672-711: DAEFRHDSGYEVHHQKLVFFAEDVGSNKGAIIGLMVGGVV

For this data set, the target named is Aβ (1-40) (Homo sapiens, UniProt P05067). The following applies: Yang et al., J Biol Chem 2005; cited from earlier work.

The structures appear in SMILES notation.

With `COc1cc(/C=C/C(=O)CC(=O)/C=C/c2ccc(O)c(OC)c2)ccc1O` [curcumin], the “inhibition of formation of an Aβ (1-40) fiber” value was “inhibit the formation of an Aβ (1-40) fiber”.
